The assay concerns alopecia areata in grafted C3H/HeJ mice. To be noted: placebo 2/5.

The structures appear in SMILES notation.

`N#CCC(C1CCCC1)n1cc(-c2ncnc3[nH]ccc23)cn1` (stereo not shown) [INCB018424]: the “mice that developed alopecia” value is given as 0/5.
